# Antibody variant affinities, Ab-14 heavy chain, assay B

Target peptide (SARS-CoV-2 spike, HR2 region): PDVDLGDISGINAS

Parent scFv Ab-14: VH joined to VL by three GGGGS repeats. Changes lie in the heavy chain CDRs alone.
VH: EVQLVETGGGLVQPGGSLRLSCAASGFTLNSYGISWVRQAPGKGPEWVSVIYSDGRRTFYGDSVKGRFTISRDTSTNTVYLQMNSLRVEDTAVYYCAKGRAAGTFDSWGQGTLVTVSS
VL: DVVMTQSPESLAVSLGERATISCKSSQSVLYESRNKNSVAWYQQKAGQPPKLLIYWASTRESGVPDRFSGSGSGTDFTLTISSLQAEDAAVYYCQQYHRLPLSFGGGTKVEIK

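The parent was found by panning a naive human phage display library on the peptide. These sequences belong to a second round, designed from the earlier measurements on random variants of the parent. Several design methods are mixed in this list. The assay is AlphaSeq: two haploid yeast populations carry antibody and antigen on their surface. Binding brings cells together so that they mate, and sequencing counts the barcode pairs among the diploids. The ratio of observed to expected reads was calibrated, replicate by replicate, on BCL2-family standards whose Kd was known from biolayer interferometry. The assay was run in six technical replicates.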

Each variant is given by its three heavy chain CDRs, as the data file delimits them; those of the parent are GFTLNSYGIS, VIYSDGRRTFYGDSVK, GRAAGTFDS. Variants here have more than six changes. Values are apparent Kd, the geometric mean of the replicates that gave a signal; lower means stronger binding. "no signal" marks a missing value. The strain was present, yet no cells mated with the target were sequenced in any replicate, which points to weak or no binding. In the paper, a design with two or fewer of six values counts as a poor binder. The parent sequence was in this pool as ten entries: three were never detected, three once, and four in most replicates, with averages from 2.2 nM to 240 nM. A sequence measured in both rounds can read differently, since the two assays cover different ranges. Nonspecific signal, from three strains lacking the peptide, appeared in 1% of pairings of all heavy chain designs, centred on 120 nM (5% of these signals below 7.0 nM); values are not corrected for it.

- GFDLNEYGIS / VIYADGMRTFYSDSVK / GTNAGTFDM: 440 pM (6 of 6 replicates)
- GFDLNEYGIS / VIYADGRRTFYADKVK / GENAGTFNV: 220 pM (6 of 6 replicates)
- GFDLDEYGIS / VIYADGQRTFYSDSVK / GETAGTFDV: 200 pM (6 of 6 replicates)
- GFDLNEYGIS / VIYADGMRTAYADNVK / GEVAGTFDL: 640 pM (5 of 6 replicates)
- GQSLDEYGIS / VIYADGQRKAYMDSVK / GNGQGTLFD: no signal (0 of 6 replicates)
- GFDIDEYGIS / VIYADGRRTYYADSVK / GTNAGTFDS: 470 pM (6 of 6 replicates)
- GMDLNEYGIS / VIYADGQRRAYAANFK / GVNIDGFDA: no signal (0 of 6 replicates)
- GDSLDEYGIS / VIYADGQRSFYADSVK / GEHDGLMFQ: no signal (0 of 6 replicates)
- GFKLEEYGIS / VIYADGLRVFYADSVK / GGFDGYKFI: no signal (0 of 6 replicates)
- GFNLDEYGIS / VIYADGRRTFYADSVK / GSHAGTFDM: 170 pM (6 of 6 replicates)
- GFDLNEYGIS / VIYADGVRKAYADSVK / GETAGTFDV: 310 pM (6 of 6 replicates)
- GFDLNEYGIS / VIYADGKRTQYIDSVK / GNVAGTFDS: 1.1 nM (6 of 6 replicates)
- GFDLNEYGIS / VIYADGMRTAYADSVK / GNVAGTFDF: 1.6 nM (6 of 6 replicates)
- GFDLNEYGIS / VIYADGRRTAYSDSVK / GNNAGTFDM: 900 pM (6 of 6 replicates)
- GKSIEEYGIS / VIYADGQRNAYAETVK / GENGGVFSY: no signal (0 of 6 replicates)
- GFDLNEYGIS / VIYADGRRTQYADSVK / GNVAGTFDS: 870 pM (6 of 6 replicates)
- GFDLNEYGIS / VIYADGQRTAYADSVK / GNIAGTFDV: 470 pM (6 of 6 replicates)
- GFDLMEYGIS / VIYADGQRQYYANKFK / GEISASGLI: 10 nM (1 of 6 replicates)
- GFDLDEYGIS / VIYADGVRTAYADSVK / GETAGTFDT: 180 pM (6 of 6 replicates)
- GFDLNEYGIS / VIYADGKRTAYVDSVK / GENAGTFDQ: 500 pM (6 of 6 replicates)
- GKSVDEYGIS / VIYADGMRAEYQDSVK / GHTGGDVFV: no signal (0 of 6 replicates)
- GFDLDEYGIS / VIYADGMRTAYADKVK / GEVAGTFDV: 140 pM (6 of 6 replicates)
- GFDLLEYGIS / VIYADGMRVAYAPDVK / GMEGQLVVD: no signal (0 of 6 replicates)
- GFDLNEYGIS / VIYADGMRTVYTDSVK / GNVAGTFDI: 1.4 nM (6 of 6 replicates)
- GFTLDEYGIS / VIYADGKRTFYTDSVK / GGNAGTFDV: 620 pM (6 of 6 replicates)
- GFDLNEYGIS / VIYADGMRTAYAEDVK / GNVAGTFDV: 350 pM (6 of 6 replicates)
- GFDLNEYGIS / VIYADGRRTQYIDSVK / GENAGTFDS: 640 pM (6 of 6 replicates)
- GFDLNEYGIS / VIYADGRRTFYADSVK / GQIAGTFSV: 170 pM (6 of 6 replicates)
- GFDLNEYGIS / VIYADGRRTQYIDSVK / GEQAGTFDN: 93 nM (6 of 6 replicates)
- GFDLNEYGIS / VIYADGRRTAYADSVK / GKNAGTFDV: 280 pM (6 of 6 replicates)
- GFDLNEYGIS / VIYADGRRTAYSDSVK / GTNAGTFDS: 430 pM (6 of 6 replicates)
- GFDLEEMGVS / VIYHDGIRTAYHQKVK / GQAAGTFDL: no signal (0 of 6 replicates)
- GFDLNEYGIS / VIYADGVRTVYADSVK / GENAGTFDI: 300 pM (6 of 6 replicates)
- GFDLNEYGIS / VIYADGVRTAYADDVK / GEVAGTFDM: 250 pM (6 of 6 replicates)
- GFDLEEYGIS / VIYADGMRTAYADDVK / GNNAGTFDV: 62 nM (2 of 6 replicates)

Excerpt, the first 4 entries:

CDR-H1,CDR-H2,CDR-H3,Kd,detected
GFDLNEYGIS,VIYADGMRTFYSDSVK,GTNAGTFDM,440 pM,6 of 6
GFDLNEYGIS,VIYADGRRTFYADKVK,GENAGTFNV,220 pM,6 of 6
GFDLDEYGIS,VIYADGQRTFYSDSVK,GETAGTFDV,200 pM,6 of 6
GFDLNEYGIS,VIYADGMRTAYADNVK,GEVAGTFDL,640 pM,5 of 6

Reference: Li et al. 2023, doi:10.1038/s41467-023-39022-2. File: FLAb, binding data.